# Reference: paper PMC11089561, “Structural Investigations of Phthalazinone Derivatives as Allosteric Inhibitors of Human DNA Methyltransferase 3A” (ACS Medicinal Chemistry Letters, 2024)
# Target: T1, DNMT3A_CD (catalytic domain of DNMT3A) (Homo sapiens, UniProt Q9Y6K1)
# T1 construct: The catalytic domain of DNMT3A (residues 634 -912) were used for all experiments; made in house; host or cells: E. coli NiCo21 (DE3) (NEB)
# Assay: In vitro methylation assay, IC50 determination ([3H]-SAM, poly dI-dC)
# Assay type: biochemical
# Conditions: ratio of IC50 values, % of 1a
# Description: a. Figure S1. Dose response curves for compounds 1a-14 S3 […]
# a. Figure S2. Double reciprocal plots of compounds 1a, 3, 4, 5, and 10 S4 […]
# 5) Chemical Synthesis and Compound Characterization of Compounds 1a-14 S6-S27 […]
# 8) NMR Spectra for Compounds 4-14 S32-S53
# Expression and Purification of DNMT3A_CD
# The catalytic domain of DNMT3A (residues 634 -912) were used for all experiments […]
# DNMT3A_CD was expressed in NiCo21 (DE3) cells (NEB) using a codon optimized plasmid pET28a-hDNMT3A_CD (∆1-611). Cell cultures were grown in LB medium at 37 °C to an OD600 = 0.8. Cultures were cooled to 25 °C, then expression was induced by the addition of 1 mM IPTG (Gold Biotechnology). Cells were harvested by centrifugation after 5 hours and flash frozen in liquid nitrogen for storage at -80 °C.
# Cells were resuspended in lysis buffer containing 50 mM K2HPO4/KH2PO4, 500 mM NaCl, 50 mM imidazole, 10% glycerol [v/v], 1 mM EDTA and 1 mM PMSF at pH 7.8.
# Sonication was used for lysis and the supernatant was collected after centrifugation at 18,000 x g for 1 hour. Lysates were applied to an ÄKTA start FPLC system (GE healthcare) and loaded onto a 1 mL HisTrap Excel column (Cytiva). The column was washed with 50 mL of lysis […]
# buffer and eluted with an identical buffer containing a higher imidazole concentration of 500 mM. Eluted protein was desalted with a 5 mL HiTrap Desalting column (Cytiva) and flash frozen in liquid nitrogen for storage at -80 °C. DNMT3A_CD concentration was determined using UV-vis with an extinction coefficient determined by protparam of 38,180 M-1 cm-1 to represent the monomeric state.
# In Vitro Methylation Assays
# Methylation assays were used to determine nanomolar amounts of methylated DNA product. Reactions were carried out in 50 mM K2HPO4/KH2PO4 at pH 7.8, 1 mM EDTA, 1 mM DTT, 0.2 mg/mL BSA, 20 mM NaCl, 150 nM DNMT3A_CD, 10 uM poly dI-dC (Sigma Aldrich), and 10 uM SAM (Sigma Aldrich) unless otherwise stated. The SAM cofactor was diluted with [3H]-SAM from PerkinElmer in 10 mM H2SO4. All inhibitors were dissolved and diluted in DMSO prior to addition to methylation reactions. Reactions with and without […]
# All reactions containing inhibitors were preincubated with DNMT3A and inhibitor for 1 hour. Reactions were activated with poly dI-dC to a final volume of 20 uL, then incubated at 37 °C for 1 hour. Reaction aliquots were spotted on Hybond-N+ membranes (GE healthcare), then washed with 50 mM K2HPO4/KH2PO4 at pH 7.8 and ethanol. Membranes were dried and counted using a Hidex LS 300 scintillation counter. […]
# Prism 10 and best-fit inhibition models were determined using an F-test (p < 0.0001). […]
# Determination of IC50 Value
# Percent activity of methylation assays was determined by comparing activities of assays with inhibitor to assays without inhibitor. Sigmoidal dose-response curves of percent activity vs compound concentration were fitted in Prism 10. The data was best-fit using Hill slope coefficient constrained to a value of -2. All assays were performed in triplicate, with additional repetitions added as necessary. […]
# Figure S1: Dose response curves IDH compounds 1a-14 (A = 1-4, B = 5-8, C = 9-11, D = 12- […]
# 14). Reactions consisted of 150 nM DNMT3A, 10 uM SAM, and 10 uM poly dI -dC. The data […]
# points represent the […]
# (1 picture or pasted object on this page, not shown here)
row,SMILES,Potency relative to lead compound 1a
1,O=C1[C@@H]2CC=CC[C@@H]2C(c2cccc(OCCCCOc3ccc(-c4nn[nH]n4)cc3)c2)=NN1Cc1ccccc1 [Compound 6],107%
2,CN1N=C(c2cccc(OCCCCOc3ccc(-c4nn[nH]n4)cc3)c2)[C@H]2CC=CC[C@H]2C1=O [Compound 5],34%
3,O=C1[C@@H]2CC=CC[C@@H]2C(c2cccc(OCCCCOc3ccc(-c4nn[nH]n4)cc3)c2)=NN1C1CCCCCC1 [Compound 4],140%
4,O=C(COc1cccc(C2=NN(C3CCCCCC3)C(=O)[C@@H]3CC=CC[C@H]23)c1)Nc1ccc(-c2nn[nH]n2)cc1 [Compound 12],36%
5,c1ccc(OCCCCOc2ccc(-c3nn[nH]n3)cc2)cc1 [Compound 14],≤ 14%
6,O=C1[C@@H]2CC=CC[C@@H]2C(c2cccc(OC/C=C\COc3ccc(-c4nn[nH]n4)cc3)c2)=NN1C1CCCCCC1 [Compound 10],127%
7,O=C1[C@@H]2CC=CC[C@@H]2C(c2cccc(OCCCCCOc3ccc(-c4nn[nH]n4)cc3)c2)=NN1C1CCCCCC1 [Compound 9],155%
8,COc1ccc(C2=NN(C3CCCCCC3)C(=O)[C@@H]3CC=CC[C@H]23)cc1OCCCCOc1ccc(C#N)cc1 [Compound 2],≤ 4%
9,O=C1[C@@H]2CC=CC[C@@H]2C(c2cccc(OCCCCOc3ccc(-c4nn[nH]n4)cc3)c2)=NN1Cc1ccc(F)c(F)c1 [Compound 7],77%
10,O=C1[C@@H]2CC=CC[C@@H]2C(c2cccc(OCCCOc3ccc(-c4nn[nH]n4)cc3)c2)=NN1C1CCCCCC1 [Compound 8],127%
11,COc1ccc(C2=NN(C3CCCCCC3)C(=O)[C@@H]3CC=CC[C@H]23)cc1OCCCCOc1ccc(C(=O)O)cc1 [Compound 3],60%
12,O=C1[C@@H]2CC=CC[C@@H]2C(c2cccc(OC/C=C/COc3ccc(-c4nn[nH]n4)cc3)c2)=NN1C1CCCCCC1 [Compound 11],107%
